According to US3978045A, “N^2 -dansyl-L-arginine derivatives, and the pharmaceutically acceptable acid addition salts thereof” (priority 1973, dated 1976):
Where a name gives a salt, the structure may show the parent alone.

Each compound was assayed against T1, thrombin (Bos taurus, UniProt P00735) (assay: Fibrinogen coagulation time (thrombin-induced clotting of fibrinogen)). Conditions: pH 7.4, read-out: Concentration required to prolong the coagulation time by a factor of 2.
T1 construct: mature alpha-thrombin (light plus heavy chain) cut from prothrombin
Type: biochemical
Procedure: The antithrombotic activities of the N^2 -dansyl-L-arginine derivatives of this invention were compared with those of a known antithrombotic agent, (N^2 -(p-tolylsulfonyl)-L-arginine methyl ester). by determining the fibrinogen coagulation time. The measurement of the fibrinogen coagulation time was conducted as follows:
An 0.8 ml aliquot of a fibrinogen solution, which had been prepared by dissolving 150 mg of bovine fibrinogen (Cohn fraction I) supplied by Armour Inc. in 40 ml of a borate saline buffer (pH 7.4), was mixed with 0.1 ml of a borate saline buffer, pH 7.4, (control) or a sample solution in the same buffer, and 0.1 ml of a thrombin solution (5 units/ml) supplied by Mochida Pharmaceutical Ltd. was added to the solutions in an ice bath. Immediately after mixing, the reaction mixture was transferred from the ice bath to a bath thermostated at 25°C. Coagulation times were taken as the period between the time of transference to the 25°C bath and the time of the first appearance of fibrin threads. In the cases where no drug samples were added, the coagulation time was 50-55 seconds.
The term "concentration required to prolong the coagulation time by a factor of two" is the concentration of an active ingredient required to prolong the normal coagulation time 50-55 seconds to 100-110 seconds.
The inhibitors are shown in Table 1 by indicating R in the general formula (I) and the added acid and/or water of crystallization.

| SMILES | IC (2-fold clotting time) [µM] |
| --- | --- |
| CN(C)c1cccc2c(S(=O)(=O)N[C@@H](CCCNC(=N)N)C(=O)OCc3ccccc3)cccc12 [Sample 11, N^2 -dansyl-L-arginine benzyl ester di(p-toluenesulfonate)] | 2 |
| CC(C)CCOC(=O)[C@H](CCCNC(=N)N)NS(=O)(=O)c1cccc2c(N(C)C)cccc12 [Sample 8, N^2 -dansyl-L-arginine isopentyl ester di(p-toluenesulfonate)] | 10 |
| CN(C)c1cccc2c(S(=O)(=O)N[C@@H](CCCNC(=N)N)C(=O)OCCCCl)cccc12 [Sample 17, N^2-dansyl-L-arginine 3-chloropropyl ester di(p-toluenesulfonate)] | 4 |
| CN(C)c1cccc2c(S(=O)(=O)N[C@@H](CCCNC(=N)N)C(=O)N3CC4CCC(CC4)C3)cccc12 [Sample 69] | 10 |
| COC(=O)[C@H](CCCNC(=N)N)NS(=O)(=O)c1cccc2c(N(C)C)cccc12 [Sample 1, N^2 -dansyl-L-arginine methyl ester dihydrochloride monohydrate] | 30 |

Next, values leading:

| IC (2-fold clotting time) [µM] | SMILES |
| --- | --- |
| 5 | CCCCCOC(=O)[C@H](CCCNC(=N)N)NS(=O)(=O)c1cccc2c(N(C)C)cccc12 [Sample 7, N^2 -dansyl-L-arginine n-amyl ester di(p-toluenesulfonate)] |
| 8 | CCCCCCOC(=O)[C@H](CCCNC(=N)N)NS(=O)(=O)c1cccc2c(N(C)C)cccc12 [Sample 9, N^2 -dansyl-L-arginine n-hexyl ester di(p-toluenesulfonate)] |
